{"sequences": {"note": "Protein sequences, listed by entry. Tags and fused reporters are not part of them.", "UniProt P41595, whole entry": "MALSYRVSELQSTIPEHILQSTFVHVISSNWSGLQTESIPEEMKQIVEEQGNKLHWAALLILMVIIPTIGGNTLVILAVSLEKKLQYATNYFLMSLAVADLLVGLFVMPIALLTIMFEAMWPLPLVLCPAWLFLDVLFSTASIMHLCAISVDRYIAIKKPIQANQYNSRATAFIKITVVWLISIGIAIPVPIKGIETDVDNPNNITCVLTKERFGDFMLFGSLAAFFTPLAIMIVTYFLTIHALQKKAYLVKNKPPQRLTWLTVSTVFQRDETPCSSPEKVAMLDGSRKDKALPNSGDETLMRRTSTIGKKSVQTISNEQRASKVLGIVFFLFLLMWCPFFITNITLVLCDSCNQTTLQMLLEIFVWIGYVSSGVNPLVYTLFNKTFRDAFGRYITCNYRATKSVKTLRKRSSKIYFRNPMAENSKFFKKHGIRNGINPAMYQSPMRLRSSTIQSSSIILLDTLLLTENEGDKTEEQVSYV"}, "source": "patent US20120190751A1", "about": "“COMPOUNDS FOR TREATMENTS OF INFLAMMATION” (ANA-MAR AB, priority 2009, published 2012)", "origin": "cited, not measured here", "target": "5HT2B receptor (Homo sapiens, UniProt P41595)", "settings": "cited from earlier work", "data": [{"substance": "mesulergine", "values": [{"measurement": "Affinity", "result": 7.4, "unit": "pKi"}]}]}
